Reference: BindingDB's records for doi:10.1038/npp.1993.4 (Eli Lilly, 1993)

Protein sequences, listed by entry. Tags and fused reporters are not part of them.
UniProt P23977, whole entry: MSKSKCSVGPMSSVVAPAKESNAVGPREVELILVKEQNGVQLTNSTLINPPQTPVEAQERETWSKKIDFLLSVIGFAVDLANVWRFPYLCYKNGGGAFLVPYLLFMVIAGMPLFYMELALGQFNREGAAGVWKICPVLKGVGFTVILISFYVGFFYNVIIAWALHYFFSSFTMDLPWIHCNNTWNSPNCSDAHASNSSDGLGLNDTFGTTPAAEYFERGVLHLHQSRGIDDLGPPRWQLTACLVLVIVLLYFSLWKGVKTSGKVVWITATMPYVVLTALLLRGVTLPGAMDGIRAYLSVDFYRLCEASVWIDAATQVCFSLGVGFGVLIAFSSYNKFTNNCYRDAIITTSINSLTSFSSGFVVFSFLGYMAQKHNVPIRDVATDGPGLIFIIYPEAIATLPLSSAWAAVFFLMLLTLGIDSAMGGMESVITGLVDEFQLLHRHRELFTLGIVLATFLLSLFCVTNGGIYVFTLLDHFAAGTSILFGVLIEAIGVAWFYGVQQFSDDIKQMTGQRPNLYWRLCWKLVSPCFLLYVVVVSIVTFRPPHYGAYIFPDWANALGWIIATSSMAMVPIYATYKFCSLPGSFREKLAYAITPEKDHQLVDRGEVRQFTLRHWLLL

Legend:
[1] = molecular target: Sodium-dependent dopamine transporter (Rattus norvegicus, UniProt P23977)
[2] = molecular target: Norepinephrine transporter (Rattus norvegicus, UniProt Q9JIA2)

Compound | Ki [1] | Ki [2]
CNCC[C@@H](Oc1cccc2ccccc12)c1cccs1 [(R)-duloxetine] | 0.659 µM | 
CNCC[C@H](Oc1cccc2ccccc12)c1cccs1 [DULOXETINE] | 0.369 µM | 0.0156 µM
